In patent US12528826B2, “[1,4]oxazepino[2,3-c]quinolinone derivatives as BCL6 inhibitors” (Cancer Research Technology Limited, priority 2019, dated 2026):

Target: Trx-6×His-BCL6 (human BCL6 BTB domain covering amino-acid sequence 5-129) (Homo sapiens, UniProt P41182)
Experiment: HTRF assay (BCL6 / BCOR peptide)
Conditions: 1 nM Trx-6×His-BCL6, 300 nM BCOR-AF633 peptide, 2 hours incubation at room temperature; tested form: 1:1 mixture of the (1R,5R) and (1S,5S) a

## Cn1c(=O)c2c(c3cc(Nc4nc(N5CC6(C)CC6(CO)C5)ncc4Cl)ccc31)N[C@@H](C1CC1)C(F)(F)CO2 (stereo partly shown)
  HTRF avg pIC50: 8.26
